{"source": "paper PMC10835732", "about": "“Pharmacokinetics of Hydroxytyrosol and Its Sulfate and Glucuronide Metabolites after the Oral Administration of Table Olives to Sprague-Dawley Rats” (Journal of Agricultural and Food Chemistry, 2024)", "origin": "cited, not measured here", "settings": "after phenolic extract from olive cake containing 10.35 mg/kg of hydroxytyrosol; ref Serra et al. 23; cited from earlier work"}
{"substance": "hydroxytyrosol glucuronide", "values": [{"measurement": "share in rat plasma", "result": 2, "unit": "%"}]}
